pEC50: −log10 of the molar value.
Target: mGlu1 receptors (Rattus norvegicus, UniProt P23385)
Assay: PI hydrolysis
Assay type: cell-based

Sequences of proteins named here, by UniProt entry; tags and fusion partners are left off. Residues count along the entry.
UniProt P23385, 19-1199: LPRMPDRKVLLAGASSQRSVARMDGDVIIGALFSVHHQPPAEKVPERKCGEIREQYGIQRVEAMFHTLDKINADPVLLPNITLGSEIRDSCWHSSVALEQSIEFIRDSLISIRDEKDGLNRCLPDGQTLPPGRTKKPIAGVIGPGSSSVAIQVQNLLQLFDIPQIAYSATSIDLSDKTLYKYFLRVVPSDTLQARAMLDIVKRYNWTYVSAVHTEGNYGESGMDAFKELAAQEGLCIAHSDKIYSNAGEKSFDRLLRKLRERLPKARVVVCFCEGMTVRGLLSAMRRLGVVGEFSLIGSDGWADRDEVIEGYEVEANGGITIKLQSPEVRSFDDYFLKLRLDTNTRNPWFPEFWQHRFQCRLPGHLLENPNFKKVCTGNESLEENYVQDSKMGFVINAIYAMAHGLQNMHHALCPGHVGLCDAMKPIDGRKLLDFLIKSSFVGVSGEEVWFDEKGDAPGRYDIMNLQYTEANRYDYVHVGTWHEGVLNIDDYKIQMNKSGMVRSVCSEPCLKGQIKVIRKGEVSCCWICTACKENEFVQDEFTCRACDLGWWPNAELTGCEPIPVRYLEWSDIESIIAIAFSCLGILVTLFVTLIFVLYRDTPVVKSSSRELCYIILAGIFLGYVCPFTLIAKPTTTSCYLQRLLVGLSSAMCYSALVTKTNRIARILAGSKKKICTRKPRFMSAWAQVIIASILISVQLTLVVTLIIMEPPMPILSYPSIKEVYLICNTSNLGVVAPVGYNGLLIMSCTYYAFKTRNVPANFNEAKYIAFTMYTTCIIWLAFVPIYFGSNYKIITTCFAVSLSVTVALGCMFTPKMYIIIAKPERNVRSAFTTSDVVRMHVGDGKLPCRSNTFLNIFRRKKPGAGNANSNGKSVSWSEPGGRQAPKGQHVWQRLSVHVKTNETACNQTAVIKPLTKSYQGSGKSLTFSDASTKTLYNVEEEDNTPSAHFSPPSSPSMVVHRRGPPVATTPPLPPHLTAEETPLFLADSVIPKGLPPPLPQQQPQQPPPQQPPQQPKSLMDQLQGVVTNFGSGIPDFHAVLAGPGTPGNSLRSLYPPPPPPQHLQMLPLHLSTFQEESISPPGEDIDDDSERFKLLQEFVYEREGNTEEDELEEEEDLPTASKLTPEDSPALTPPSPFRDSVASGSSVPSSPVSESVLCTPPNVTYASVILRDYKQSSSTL

## N[C@@]1(C(=O)O)CC[C@@H](C(=O)O)C1 [ACPD, (1S,3R)-1-aminocyclopentane-1,3-dicarboxylic acid]
  pEC50: 4.52
